Data taken from ChEMBL document CHEMBL5634095, “Design, synthesis and evaluation of novel pyrimidinylaminothiophene derivatives as FGFR1 inhibitors against human glioblastoma multiforme” (Eur J Med Chem, 2023).
Calls of active or inactive are those of the source.

Legend:
U-87 MG [1] = experiment: Antitumor activity against human U-87 MG cells implanted in nude mouse assessed as reduction in tumor volume increase at 75 mg/kg/day, po administered 5 times a week for 4 weeks; format: functional, organism-based; details: U-87MG ATCC
U-87 MG [2] = experiment: Antitumor activity against human U-87 MG cells implanted in nude mouse assessed as reduction in MMP-2 expression at 50 to 75 mg/kg/day, po administered 5 times a week for 4 weeks by IHC analysis; format: functional, organism-based; details: U-87MG ATCC, dose 50-75 mg/kg/day
U-87 MG [3] = experiment: Antitumor activity against human U-87 MG cells implanted in nude mouse assessed as reduction in MMP-9 expression at 50 to 75 mg/kg/day, po administered 5 times a week for 4 weeks by IHC analysis; format: functional, organism-based; details: U-87MG ATCC, dose 50-75 mg/kg/day
U-87 MG [4] = experiment: Antimigratory activity against human U-87 MG cells assessed as reduction in rate of cell migration at 0.1 to 5 uM incubated for 24 hrs by scratch wound healing assay; format: functional, cell-based; details: U-87MG ATCC, dose 0.1-5 µM
U-87 MG [5] = experiment: Antimigratory activity against human U-87 MG cells assessed as reduction in rate of cell migration at 5 uM incubated for 24 hrs by scratch wound healing assay; format: functional, cell-based; details: U-87MG ATCC
U-87 MG [6] = experiment: Antitumor activity in human U-87 MG cells assessed as reduction in MMP-2 expression by Western blot analysis; format: functional, cell-based; details: U-87MG ATCC, dose 0.3-5 µM
U-87 MG [7] = experiment: Antitumor activity in human U-87 MG cells assessed as reduction in MMP-9 expression by Western blot analysis; format: functional, cell-based; details: U-87MG ATCC, dose 0.3-5 µM
HUVEC = experiment: Anti-angiogenesis activity in HUVEC assessed as reduction in cell adhesion; format: functional, cell-based; details: Homo sapiens

Measured: Activity

CNC(=O)c1ccsc1Nc1nc(Nc2ccc(N3CCC(N4CCOCC4)CC3)cc2)ncc1C(F)(F)F
active: U-87 MG [1] | U-87 MG [2] | U-87 MG [3] | U-87 MG [4] | U-87 MG [5] | U-87 MG [6] Dose-Dependent Effect | U-87 MG [7] Dose-Dependent Effect | HUVEC Dose-Dependent Effect
